Experimental data taken from patent US12180165B2, “Human TLR8-selective agonists” (University of Kansas, priority 2015, dated 2024).

What was measured:
CD14+ monocytes = assay: Eight-color flow cytometry of activation markers in human whole blood; conditions: FIG. 5
whole human blood = assay: Proinflammatory cytokine induction in whole human blood assays; assay type: cell-based; conditions: 2 relative to 1

Compound | CD40 upregulation (CD14+ monocytes) | proinflammatory cytokine induction (whole human blood)
CCCCc1nc2c(N)nc3ccccc3c2n1Cc1ccc(CN)cc1 | upregulate CD40 | –
CCCCc1nc2c(N)nc3ccccc3c2n1Cc1cccc(CN)c1 | – | higher proinflammatory cytokine induction
